The record followed here is PubChem BioAssay AID588674 (Broad Institute, 2011).

This is a selection; strong and weak results do not stand in their true shares. Active and inactive are the calls of the source.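 Rule for the calls: active = mean inhibition of at least 75% with every replicate also reaching 75%; inconclusive = mean inhibition at least 75% but some replicate below; inactive = mean inhibition below 75%.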

This assay in a line: reduction of Shn3 3'UTR firefly luciferase signal, primary screen, Schnurri-3 inhibitor project, cell-based, Clone20 osteoblasts, set 2 (AID 588674).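 Note: 0% = median of neutral control wells and 100% = pilot-screen positive control compound.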 The settings on record: Clone20 osteoblast Shn3 3'UTR firefly luciferase, 24 h; at 12.5 µM; hits give high values.
For orientation: inhibition means the drop in the measured response relative to a control, in per cent. In the case of `Clc1n[nH]nc1-c1nn[nH][15n]1`, the inhibition is inactive: 6.39%. For the compound `O=P1(N(CCCl)CCCl)NCCC(C(F)(F)F)O1` (stereo not given), the inhibition was inactive: 6.38%. `COc1ccccc1CNC(=O)COC(=O)C(O)(c1ccccc1)c1ccccc1`: the inhibition is inactive: -3.16%. As for `CN(C(=O)Cc1ccc(Cl)c(Cl)c1)[C@@H]1CCCC[C@H]1N1CCCC1`, the inhibition was inactive: 3.65%.

As to `CC(C)/C=N\N=C(\N)N[N+](=O)[O-]`, the inhibition is inactive: -9.6%. With `CC1(CBr)Cn2c(nc3ccccc3c2=O)S1` (stereo not given), the inhibition was inactive: -17.3%.

As to `CS(=O)(=O)c1ccc(Cl)c(NC(=O)COC(=O)C(O)(c2ccccc2)c2ccccc2)c1`, the inhibition is inactive: 12.1%.

Regarding `COc1cc(C(=O)NCC2(N3CCOCC3)CCCCC2)cc(Cl)c1OC(C)C`, the inhibition is inactive: 32.4%. Under `O=[As](O)(O)c1cccnc1` stands inactive: -4.19%; under `O=[As](O)(c1cccc(O)c1)c1cccc(O)c1`, inactive: 3.36%. For the compound `Cc1cccc(OCC(=O)OC2CN3CCC2CC3)c1` (stereo not given), the inhibition is inactive: 3.11%. In the case of `Cc1ccc(NCCc2c([N+](=O)[O-])cc([N+](=O)[O-])cc2[N+](=O)[O-])cc1`, the inhibition is inactive: -32.3%.

As to `Nc1cccc2c([As](=O)(O)O)cccc12`, the inhibition was inactive: 16.8%. On to `CCCOP(=S)(Nc1nc(N)cc(=O)[nH]1)OCCC`, for which the inhibition was inactive: 4.92%.

Take `CCOP(=O)(Nc1cccc2ccccc12)OCC`: the inhibition was inactive: 21.9%. Turning to `COc1cc(C2NCCC3(OCCO3)C2(C)C)cc(OC)c1OC` (stereo not given), the inhibition is inactive: -3.2%. As for `O=P(Nc1nccs1)(c1ccccc1)c1nc2ccccc2s1` (stereo not given), the inhibition was inactive: -10.5%. The same measure for `O=P(Nc1nccs1)(Oc1ccccc1)Oc1ccccc1`: inactive: -15.5%.

Take `CCOP1(=S)c2c(C)nn(CCC#N)c2N=C(c2ccccc2F)N1C` (stereo not given): the inhibition was inactive: 32.5%. In the case of `CS(=O)(=O)c1cc([N+](=O)[O-])c2no[n+]([O-])c2c1`, the inhibition is inactive: 6.3%. For the compound `O=C(O)COc1ccc([As](=O)(O)O)cc1[N+](=O)[O-]`, the inhibition is inactive: 5.93%.

For `Nc1ccccc1[As](=O)(O)c1ccccc1`, the inhibition was inactive: -13.3%. Under `NC(=O)Nc1ccc([As](=O)(O)O)cc1` stands inactive: -8.48%. With `CN(C(=O)Cc1ccccc1)[C@@H]1CC[C@]2(CCCO2)C[C@H]1N1CCCC1`, the inhibition is inactive: -1.23%.

Take `CCOP1(=S)c2c(C)nn(CCC#N)c2N=C(c2ccc(F)cc2)N1C` (stereo not given): the inhibition is inactive: -0.772%.

Consider `N#CCCN(C(=O)COC(=O)C(O)(c1ccccc1)c1ccccc1)c1ccc(F)cc1`, for which the inhibition is inactive: -16%. Under `CN(C(=O)Cc1ccc(Cl)c(Cl)c1)[C@H]1CC[C@@]2(CCCO2)C[C@@H]1N1CCCC1` stands inactive: 0.089%; under `CN(C)C(=O)c1cc([N+](=O)[O-])cc2c1-c1c(cc([N+](=O)[O-])cc1[N+](=O)[O-])C2=O`, inactive: 56.1%. For the compound `O=[N+]([O-])c1ccc2c(c1)nnn2O`, the inhibition was inactive: -15.3%. For `COc1cc(C(=O)NCC2(N3CCOCC3)CCCCC2)ccc1OCC(C)C`, the inhibition was inactive: 4.67%. With `O=[N+]([O-])c1ccc(-c2cc([N+](=O)[O-])c(O)c([N+](=O)[O-])c2)cc1`, the inhibition is inactive: -26.2%. As for `O=[As](O)(c1ccc(O)cc1)c1ccccc1O`, the inhibition is inactive: -9.38%. Turning to `C[As](=O)(O)c1cccc(C(=O)O)c1`, the inhibition was inactive: 0.0355%. With `Cc1ccc(OP(=O)(Nc2ccc([N+](=O)[O-])cn2)Oc2ccc(C)cc2)cc1`, the inhibition was inactive: -15.6%.

As for `Cc1ccc2nc3c(c(C)c2c1)CC(C(Cl)Cl)S3` (stereo not given), the inhibition was inactive: -41.5%. For `ClCCSc1nnc(-c2cccnc2)o1`, the inhibition is inactive: -27.5%. Under `CC(C)c1ccc(OP(=O)(Nc2ccccn2)Oc2ccccc2F)cc1` (stereo not given) stands inactive: 15%. For the compound `COC(=O)C1(C)COP(=O)(N2CCCCCC2)OC1` (stereo not given), the inhibition is inactive: 75%. In the case of `O=[N+]([O-])c1cc([N+](=O)[O-])c(-c2ccn[nH]2)s1`, the inhibition is inactive: -14.4%.

As to `CCN(CC)C(=S)SC(NC=O)C(Cl)(Cl)Cl` (stereo not given), the inhibition is inactive: 64.2%. With `O=C(OC1CN2CCC1CC2)c1cccc2[nH]cnc12` (stereo not given), the inhibition is inactive: 3.72%. For the compound `CC(C)NC(=O)NP(=O)(Oc1ccccc1)Oc1ccccc1`, the inhibition was inactive: -13.8%. Turning to `Cc1c2c(nc3ccccc13)SC(C(Cl)Cl)C2` (stereo not given), the inhibition was inactive: -15.1%. Turning to `Cc1cc(=O)[nH]c(N[N+](=O)[O-])n1`, the inhibition is inactive: -5.35%. On to `O=C(OC1CN2CCC1CC2)C12CC3CC(CC(C3)C1)C2` (stereo not given), for which the inhibition is inactive: -2.86%. On to `O=P1(N(CCCl)CCCl)OCCCN1CCCl` (stereo not given), for which the inhibition was inactive: -6.47%. Regarding `O=P1(N(CCCl)CCCl)Nc2ccccc2N1`, the inhibition was inactive: -10.1%.

Consider `COc1cc(I)ccc1[As](=O)(O)O`, for which the inhibition was inactive: -9.54%. For `COc1ccc2nc(NP(=O)(c3ccccc3)c3ccccc3)sc2c1`, the inhibition was inactive: 11.2%. Take `O=[N+]([O-])c1cc(Oc2ccc([N+](=O)[O-])cc2C(F)(F)F)cc([N+](=O)[O-])c1`: the inhibition was inactive: 10%. As for `COc1ccc(N/C(=N/P(=O)(N2CCOCC2)N2CCOCC2)N2CCOCC2)cc1`, the inhibition was inactive: -6.21%.

Take `COC(=O)C1(C)COP(=O)(N2CCCC2)OC1` (stereo not given): the inhibition was inactive: 11.7%.

Regarding `COP1(=S)c2c(C)nn(CCC#N)c2N=C(c2ccc(F)cc2)N1C` (stereo not given), the inhibition is inactive: -12.2%. Consider `O=C(O)C(=O)c1ccc(N(CCCl)CCCl)cc1`, for which the inhibition was inactive: -25.3%. For `O=C(Nc1ccncc1[N+](=O)[O-])c1ccc([N+](=O)[O-])cc1[N+](=O)[O-]`, the inhibition was inactive: -10.8%. As for `O=C(COc1ccccc1)OC1CN2CCC1CC2` (stereo not given), the inhibition is inactive: -15.5%. The same measure for `CSc1ccc(Nc2c([N+](=O)[O-])cc([N+](=O)[O-])cc2[N+](=O)[O-])cc1`: inactive: 64.7%; for `O=C(OC1CN2CCC1CC2)c1cccc([N+](=O)[O-])c1` (stereo not given): inactive: -0.994%; for `CCOC(=O)c1ccc(NC(=O)C(C)(CCl)SC)cc1` (stereo not given): inactive: -47%. In the case of `CCC(C)N(CC(C)C)C(=S)SC(NC(C)=O)C(Cl)(Cl)Cl` (stereo not given), the inhibition is inactive: -6.33%. Take `O=C(O)C(O)c1ccc(N(CCCl)CCCl)cc1` (stereo not given): the inhibition was inactive: 16.3%. Turning to `CCOC(=O)Nc1ccc([As](=O)(O)O)c(O)c1`, the inhibition is inactive: -1.97%.

On to `CC1CCNP(=O)(N(CCCl)CCCl)O1` (stereo not given), for which the inhibition is inactive: 13.4%. As for `COP(=O)(OC)N1CC1c1ccccc1` (stereo not given), the inhibition is inactive: -25.9%. `Cc1cc(SC(NC(=O)c2ccccc2)C(Cl)(Cl)Cl)nc(C(C)C)n1` (stereo not given): the inhibition is inactive: -3.63%. With `CCCCOc1ccc(C(=O)NCC2(N3CCCCC3)CCCCC2)cc1OC`, the inhibition was inactive: -13.2%. On to `CCOC(=O)Nc1cccc([As](=O)(O)O)c1`, for which the inhibition is inactive: -14.5%.

Consider `Cc1cc(SC(NC=O)C(Cl)(Cl)Cl)ncn1` (stereo not given), for which the inhibition is inactive: -0.817%. Regarding `O=P(Nc1ccccn1)(c1cccc2ccccc12)c1cccc2ccccc12`, the inhibition was inactive: -9.74%. Turning to `O=[N+]([O-])c1ccc(Nc2ccc(Oc3ccc([N+](=O)[O-])cc3[N+](=O)[O-])cc2)c([N+](=O)[O-])c1`, the inhibition is inactive: 1.35%.
